Reference: patent US6428816B1, “Carotenoid agent for inhibiting the conversion of epithelial cells to tumors” (Cognis Australia Pty., Ltd., priority 1992, dated 2002)

System: normal human melanocytes
Settings: FIG. 2; immediately following 500 mJ/cm^2 UV-B (0.05 hr); 24 h pre-treatment with 1.0 microgram/ml
Protocol: Human neonatal foreskins were placed in 0.25% trypsin at 4° C. overnight. Following this incubation, the tissue was scraped to recover the melanocytes. The melanocytes were cultured in MCDB 151 (Sigma) medium containing 2% fetal calf serum, 0.3% bovine pituitary extract (Clonetics Corp.), 10 nanograms/ml TPA, 2 mM CaCl2, 5 micrograms/ml insulin and 0.1 mM IBMX (Sigma).
Cells were harvested with 0.25% trypsin and counted on a Coulter Counter (Coulter Instruments). Viability was determined by trypan blue exclusion. DNA synthesis was measured by labelling with (methyl-^3H)-thymidine (2.5 mCi/ml, 20 Ci/mmol, DuPont-New England Nuclear) added to the medium during the last 4 hours of incubation. Melanocytes were harvested using a Ph.D. cell harvester (Cambridge Research Inc.). the amount of radioactivity incorporated was determined by liquid scintillation counting (LS5000TD. Beckman Instruments).
Normal human melanocytes were seeded into the appropriate vessel (6 well plate, 96 well plate, 75 cm or 175 cm flask) and allowed to grow to 50-60% confluency. […] The 0.05 hour time indicates cells were harvested within 3 minutes following UV-B exposure.

SMILES: CC1=C(/C=C/C(C)=C/C=C/C(C)=C/C=C/C=C(C)/C=C/C=C(C)/C=C/C2=C(C)CCCC2(C)C)C(C)(C)CCC1 [beta-carotene]
- increase in cell viability with beta-carotene as compared to UV-B alone: ~20%
